Laboratory results: patent US9073897B2, “Cyclic sulfonium salt, process for production of same, and α-glucosidase inhibitor comprising same” (KINKI UNIVERSITY, priority 2011, dated 2015)

Protein sequences, listed by entry. Tags and fused reporters are not part of them. Lines headed by an entry give the natural chain unless they say otherwise; changes in a name come on top.
UniProt P23739: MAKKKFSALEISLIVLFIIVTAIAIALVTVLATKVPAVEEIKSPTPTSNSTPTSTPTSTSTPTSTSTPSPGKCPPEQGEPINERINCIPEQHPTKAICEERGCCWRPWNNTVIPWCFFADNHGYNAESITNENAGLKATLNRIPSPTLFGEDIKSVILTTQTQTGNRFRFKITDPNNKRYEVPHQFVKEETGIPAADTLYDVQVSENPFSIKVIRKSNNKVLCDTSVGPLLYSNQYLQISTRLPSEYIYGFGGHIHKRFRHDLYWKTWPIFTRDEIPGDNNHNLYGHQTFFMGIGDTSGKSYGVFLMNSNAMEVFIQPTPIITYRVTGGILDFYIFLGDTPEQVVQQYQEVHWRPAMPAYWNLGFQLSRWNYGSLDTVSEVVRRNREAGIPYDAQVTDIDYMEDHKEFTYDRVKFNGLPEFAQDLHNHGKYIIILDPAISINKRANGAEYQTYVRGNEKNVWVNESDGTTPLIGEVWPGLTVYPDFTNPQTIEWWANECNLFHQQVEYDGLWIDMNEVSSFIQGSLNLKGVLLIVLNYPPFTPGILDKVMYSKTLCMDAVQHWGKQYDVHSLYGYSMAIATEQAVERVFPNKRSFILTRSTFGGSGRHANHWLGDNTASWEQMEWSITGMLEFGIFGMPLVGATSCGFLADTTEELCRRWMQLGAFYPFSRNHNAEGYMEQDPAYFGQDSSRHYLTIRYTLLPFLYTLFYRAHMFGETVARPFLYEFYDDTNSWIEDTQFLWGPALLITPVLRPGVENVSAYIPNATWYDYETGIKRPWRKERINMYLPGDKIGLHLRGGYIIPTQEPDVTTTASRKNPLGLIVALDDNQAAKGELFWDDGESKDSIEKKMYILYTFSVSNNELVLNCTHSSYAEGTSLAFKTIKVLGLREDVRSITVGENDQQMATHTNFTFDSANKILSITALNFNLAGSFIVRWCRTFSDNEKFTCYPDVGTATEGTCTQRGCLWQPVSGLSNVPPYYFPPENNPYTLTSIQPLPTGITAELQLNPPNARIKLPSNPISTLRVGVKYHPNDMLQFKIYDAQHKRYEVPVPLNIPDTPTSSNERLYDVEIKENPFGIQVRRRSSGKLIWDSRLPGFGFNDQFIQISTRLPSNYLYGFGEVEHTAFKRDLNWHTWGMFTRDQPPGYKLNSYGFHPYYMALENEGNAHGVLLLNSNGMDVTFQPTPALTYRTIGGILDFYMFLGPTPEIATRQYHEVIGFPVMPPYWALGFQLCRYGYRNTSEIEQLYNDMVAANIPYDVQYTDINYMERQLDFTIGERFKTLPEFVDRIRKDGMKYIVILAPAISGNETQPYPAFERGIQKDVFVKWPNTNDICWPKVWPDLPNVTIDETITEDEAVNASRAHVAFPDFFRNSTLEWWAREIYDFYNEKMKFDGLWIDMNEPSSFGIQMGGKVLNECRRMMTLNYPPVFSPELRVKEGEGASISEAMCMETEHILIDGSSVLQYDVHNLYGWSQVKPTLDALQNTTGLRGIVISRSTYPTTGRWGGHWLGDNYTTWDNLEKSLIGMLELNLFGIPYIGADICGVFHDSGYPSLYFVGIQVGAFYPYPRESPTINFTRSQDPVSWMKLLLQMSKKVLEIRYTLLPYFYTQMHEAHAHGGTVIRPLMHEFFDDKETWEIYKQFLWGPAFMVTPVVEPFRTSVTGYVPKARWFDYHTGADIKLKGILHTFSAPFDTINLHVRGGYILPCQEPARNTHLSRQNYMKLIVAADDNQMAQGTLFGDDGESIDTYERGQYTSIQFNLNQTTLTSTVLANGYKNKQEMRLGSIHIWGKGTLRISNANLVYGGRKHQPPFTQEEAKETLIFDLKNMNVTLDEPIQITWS

Columns and labels:
[1] = molecular target: T1, Sucrase (Rattus norvegicus, UniProt P23739); assay: α-glucosidase inhibition, rat small intestinal brush border membrane, sucrose substrate; format: biochemical; settings: rat small intestine brush border membrane; sucrose (74 mM); 0.1M maleate buffer (pH6.0); 37° C. for 30 minutes
T1 construct: Brush border membrane follicles of rat's small intestine were prepared; from tissue; host or cells: rat small intestine brush border membrane vesicles
Procedure: (§1) Brush border membrane follicles of rat's small intestine were prepared in accordance with the literature (Kessler, M. et al., Biochem. Biophys. Act, 1978, 506, 136), and a suspension of the follicles in 0.1M maleate buffer (pH6.0) was used as an intraintestinal α-glucosidase (maltase, sucrose and isomaltase).
(§2) A compound to be tested was dissolved in methylsulfoxide (DMSO) and the resulting solution was diluted with 0.1M maleate buffer to prepare a solution of the testing compound (DMSO concentration: 10%). A solution of a substrate (sucrose (74 mM), maltose (74 mM) or isomaltose (74 mM, […]) in the maleate buffer, a solution (25 μl) of the testing compound and the enzyme solution (25 μl) were mixed and the resulting solution was incubated at 37° C. for 30 minutes. Immediately after incubation, the resulting solution was heated by boiling water to terminate the reaction and mixed with water (150 μl). The concentration of glucose was measured by glucose oxidase method. The final concentration of DMSO in the testing solution was set to 2.5%, and no influence of DMSO on an inhibitory activity was detected. A 50% inhibitory concentration (IC50) was computed from the measured values.

[2] = molecular target: T2, Isomaltase (Rattus norvegicus, UniProt P23739); assay: α-glucosidase inhibition, rat small intestinal brush border membrane, isomaltose substrate; format: biochemical; settings: rat small intestine brush border membrane; isomaltose (74 mM); 0.1M maleate buffer (pH6.0); 37° C. for 30 minutes
T2 construct: Brush border membrane follicles of rat's small intestine were prepared; from tissue; host or cells: rat small intestine brush border membrane vesicles
Procedure: as §1, §2

C[C@H]1O[C@H](O[C@H]2[C@H](O)[C@@H](O)[C@@H](O[C@H]3[C@H](O)[C@@H](O)C(O)O[C@@H]3CO)O[C@@H]2CO)[C@H](O)[C@@H](O)[C@@H]1N[C@H]1C=C(CO)[C@@H](O)[C@H](O)[C@H]1O (some centres unmarked) [acalbose, reference compound]
α-glucosidase (IC50) Sucrase [1]: 2 µg/mL
α-glucosidase (IC50) Isomaltase [2]: 646 µg/mL
